# Key:
# [1] = Simulated in-vitro gastro-intestinal digestion of protein hydrolysate (PH); format: in vitro ADME; settings: for resistance against GIT digestion: PH processed by artificial gastro-intestinal tract
# Source text: Milk proteins and milk protein hydrolysates are commonly known as precursors of a large range of ACE inhibitory peptides. After consumption, the proteins and peptides are subjected to various digestive enzymatic processes in the human gastrointestinal tract, which results in the release of in-vivo ACE inhibitory peptides. In order to assess the break-down of the identified bioactive peptides and the formation of novel active peptides after human consumption, PH was processed by an artificial gastro-intestinal tract, which simulated conditions typically found in the human body. At certain times samples were taken from the GIT model system. These were also analysed using the on-line HPLC-Bioassay-MS or HRS-MS system.
# Digestion of protein hydrolysate (hereafter PH), a hydrolyzed casein protein isolate obtained from DSM (Delft, The Netherlands). The protein hydrolysate (PH) was prepared by incubation of 10 wt % potassium caseinate with overproduced and essentially pure endoprotease from Aspergillus niger as described in WO 02/45524.
# The digestion procedure was performed using a dissolution model (Vankel) with a 100 ml flask. The temperature of the water bath was set to 37.5° C. and the paddle speed was chosen such that the sample was kept in suspension (100 rpm).
# About 3.4 grams of PH (protein level of 59%) was dissolved/suspended in 100 ml Milli-Q water. During gastric simulation 5 M HCl was used to decrease the pH, at the end of gastric simulation and during the duodenal phase 5 M NaOH was used to raise the pH.
# The protein hydrolysate suspension was preheated to 37.5° C. At t=0 min 0.31 g of pepsin (Fluka order no. 77161) was suspended separately in 5 ml of the sample and was directly added.
# The pH was adjusted slowly by hand using a separate pH meter according to the following scheme;
# At t=90 min 0.139 g of 8 times USP pancreatin (Sigma order no. P7545) was suspended separately in 5 ml of the sample and was directly added;
# The experiment was stopped at t=125 min and the pH was checked (was still pH 7).
# The samples were transferred into a beaker and were heated in a microwave till boiling. Subsequently, the samples were transferred into glass tubes and incubated at 95° C. for 60 min. This is necessary to inactivate all protease activity. After cooling the samples were put in falcon tubes and centrifuged for 10 min at 3000×g. The supernatant was freeze dried. The total N concentration was determined and converted to protein level using the Kjeldahl factor of casein (6.38). The protein level of the PH digest was 48.4%.
# [2] = Simulated in-vitro gastro-intestinal digestion of synthetic MAP and ITP (micro-dissolution); format: in vitro ADME
# [3] = in PH after digestion in artificial human gastro intestinal tract
smiles,measurement,setting,value
"CC[C@H](C)[C@H](N)C(=O)N[C@H](C(=O)N1CCC[C@H]1C(=O)O)[C@@H](C)O [ITP, Ile-Thr-Pro]",resistance against GIT digestion,[1],high resistance
same,Concentration in μg g^−1 powder,[1]; [3],889.13 μg g^−1 powder
same,Concentration in μg g^−1 powder,[1]; in PH before digestion,903.74 μg g^−1 powder
same,% average,"[2]; 1 microgram/ml, time 0 min",100%
same,% remaining trial 1,"[2]; 1 microgram/ml, time 0 min",100%
same,% remaining trial 2,"[2]; 1 microgram/ml, time 0 min",100%
same,conc Ng/ml a,"[2]; 1 microgram/ml, time 0 min",1325.201 ng/mL
same,conc Ng/ml b,"[2]; 1 microgram/ml, time 0 min",901.297 ng/mL
same,% remaining trial 1,"[2]; 1 microgram/ml, time 30 min",93%
same,conc Ng/ml a,"[2]; 1 microgram/ml, time 30 min",1236.423 ng/mL
same,conc Ng/ml b,"[2]; 1 microgram/ml, time 30 min",952.165 ng/mL
same,% remaining trial 1,"[2]; 1 microgram/ml, time 60 min",72%
same,% remaining trial 2,"[2]; 1 microgram/ml, time 60 min",99%
same,conc Ng/ml a,"[2]; 1 microgram/ml, time 60 min",950.665 ng/mL
same,conc Ng/ml b,"[2]; 1 microgram/ml, time 60 min",893.015 ng/mL
same,% remaining trial 1,"[2]; 1 microgram/ml, time 65 min",55%
same,% remaining trial 2,"[2]; 1 microgram/ml, time 65 min",75%
same,conc Ng/ml a,"[2]; 1 microgram/ml, time 65 min",722.452 ng/mL
same,conc Ng/ml b,"[2]; 1 microgram/ml, time 65 min",677.991 ng/mL
same,% remaining trial 2,"[2]; 1 microgram/ml, time 75 min",77%
same,conc Ng/ml b,"[2]; 1 microgram/ml, time 75 min",698.078 ng/mL
same,% remaining trial 1,"[2]; 1 microgram/ml, time 90 min",46%
same,% remaining trial 2,"[2]; 1 microgram/ml, time 90 min",78%
same,conc Ng/ml a,"[2]; 1 microgram/ml, time 90 min",603.143 ng/mL
same,conc Ng/ml b,"[2]; 1 microgram/ml, time 90 min",704.863 ng/mL
same,% remaining trial 1,"[2]; 1 microgram/ml, time 120 min",53%
same,% remaining trial 2,"[2]; 1 microgram/ml, time 120 min",75%
same,conc Ng/ml a,"[2]; 1 microgram/ml, time 120 min",701.749 ng/mL
same,conc Ng/ml b,"[2]; 1 microgram/ml, time 120 min",678.751 ng/mL
same,% average,"[2]; 10 microgram/ml, time 0 min",100%
same,% remaining trial 1,"[2]; 10 microgram/ml, time 0 min",100%
same,% remaining trial 2,"[2]; 10 microgram/ml, time 0 min",100%
same,conc Ng/ml a,"[2]; 10 microgram/ml, time 0 min",11230.3 ng/mL
same,conc Ng/ml b,"[2]; 10 microgram/ml, time 0 min",9388.467 ng/mL
same,% remaining trial 1,"[2]; 10 microgram/ml, time 30 min",78%
same,% remaining trial 2,"[2]; 10 microgram/ml, time 30 min",84%
same,conc Ng/ml a,"[2]; 10 microgram/ml, time 30 min",8725.687 ng/mL
same,conc Ng/ml b,"[2]; 10 microgram/ml, time 30 min",7884.828 ng/mL
same,% remaining trial 1,"[2]; 10 microgram/ml, time 60 min",76%
same,conc Ng/ml a,"[2]; 10 microgram/ml, time 60 min",8542.271 ng/mL
same,conc Ng/ml b,"[2]; 10 microgram/ml, time 60 min",9951.495 ng/mL
same,% remaining trial 1,"[2]; 10 microgram/ml, time 65 min",60%
same,% remaining trial 2,"[2]; 10 microgram/ml, time 65 min",91%
same,conc Ng/ml a,"[2]; 10 microgram/ml, time 65 min",6739.74 ng/mL
same,conc Ng/ml b,"[2]; 10 microgram/ml, time 65 min",8504.414 ng/mL
same,% remaining trial 1,"[2]; 10 microgram/ml, time 75 min",62%
same,% remaining trial 2,"[2]; 10 microgram/ml, time 75 min",64%
same,conc Ng/ml a,"[2]; 10 microgram/ml, time 75 min",7016.45 ng/mL
same,conc Ng/ml b,"[2]; 10 microgram/ml, time 75 min",6052.258 ng/mL
same,% remaining trial 1,"[2]; 10 microgram/ml, time 90 min",64%
same,% remaining trial 2,"[2]; 10 microgram/ml, time 90 min",60%
same,conc Ng/ml a,"[2]; 10 microgram/ml, time 90 min",7212.26 ng/mL
same,conc Ng/ml b,"[2]; 10 microgram/ml, time 90 min",5660.004 ng/mL
same,% remaining trial 1,"[2]; 10 microgram/ml, time 120 min",46%
same,conc Ng/ml a,"[2]; 10 microgram/ml, time 120 min",5168.85 ng/mL
"CSCC[C@H](N)C(=O)N[C@@H](C)C(=O)N1CCC[C@H]1C(=O)O [MAP, Met-Ala-Pro]",resistance against GIT digestion,[1],high resistance
same,Concentration in μg g^−1 powder,[1]; [3],3095.8 μg g^−1 powder
same,Concentration in μg g^−1 powder,[1]; in PH before digestion,2851.4 μg g^−1 powder
same,% average,"[2]; 1 microgram/ml, time 0 min",100%
same,% remaining trial 1,"[2]; 1 microgram/ml, time 0 min",100%
same,% remaining trial 2,"[2]; 1 microgram/ml, time 0 min",100%
same,conc Ng/ml b,"[2]; 1 microgram/ml, time 0 min",2962.5 ng/mL
same,% remaining trial 2,"[2]; 1 microgram/ml, time 30 min",93%
same,conc Ng/ml b,"[2]; 1 microgram/ml, time 30 min",2760 ng/mL
same,% remaining trial 1,"[2]; 1 microgram/ml, time 60 min",64%
same,conc Ng/ml a,"[2]; 1 microgram/ml, time 60 min",1902.6 ng/mL
same,% remaining trial 1,"[2]; 1 microgram/ml, time 65 min",47%
same,% remaining trial 2,"[2]; 1 microgram/ml, time 65 min",56%
same,conc Ng/ml a,"[2]; 1 microgram/ml, time 65 min",1384.6 ng/mL
same,conc Ng/ml b,"[2]; 1 microgram/ml, time 65 min",1654.1 ng/mL
same,% remaining trial 1,"[2]; 1 microgram/ml, time 75 min",43%
same,% remaining trial 2,"[2]; 1 microgram/ml, time 75 min",54%
same,conc Ng/ml b,"[2]; 1 microgram/ml, time 75 min",1608.3 ng/mL
same,% remaining trial 1,"[2]; 1 microgram/ml, time 90 min",25%
same,% remaining trial 2,"[2]; 1 microgram/ml, time 90 min",31%
same,conc Ng/ml a,"[2]; 1 microgram/ml, time 90 min",730.5 ng/mL
same,conc Ng/ml b,"[2]; 1 microgram/ml, time 90 min",911.6 ng/mL
same,% remaining trial 1,"[2]; 1 microgram/ml, time 120 min",13%
same,% remaining trial 2,"[2]; 1 microgram/ml, time 120 min",17%
same,conc Ng/ml a,"[2]; 1 microgram/ml, time 120 min",377.2 ng/mL
same,conc Ng/ml b,"[2]; 1 microgram/ml, time 120 min",503.3 ng/mL
same,% average,"[2]; 10 microgram/ml, time 0 min",100%
same,% remaining trial 1,"[2]; 10 microgram/ml, time 0 min",100%
same,% remaining trial 2,"[2]; 10 microgram/ml, time 0 min",100%
same,conc Ng/ml b,"[2]; 10 microgram/ml, time 0 min",82499.2 ng/mL
same,% remaining trial 1,"[2]; 10 microgram/ml, time 30 min",61%
same,% remaining trial 2,"[2]; 10 microgram/ml, time 30 min",93%
same,conc Ng/ml a,"[2]; 10 microgram/ml, time 30 min",50635.6 ng/mL
same,conc Ng/ml b,"[2]; 10 microgram/ml, time 30 min",76600.6 ng/mL
same,% remaining trial 1,"[2]; 10 microgram/ml, time 65 min",35%
same,% remaining trial 2,"[2]; 10 microgram/ml, time 65 min",40%
same,conc Ng/ml a,"[2]; 10 microgram/ml, time 65 min",28492.5 ng/mL
same,conc Ng/ml b,"[2]; 10 microgram/ml, time 65 min",33339.1 ng/mL
same,% remaining trial 1,"[2]; 10 microgram/ml, time 75 min",27%
same,% remaining trial 2,"[2]; 10 microgram/ml, time 75 min",27%
same,conc Ng/ml a,"[2]; 10 microgram/ml, time 75 min",21936.4 ng/mL
same,conc Ng/ml b,"[2]; 10 microgram/ml, time 75 min",21991.9 ng/mL
same,% remaining trial 1,"[2]; 10 microgram/ml, time 90 min",9%
same,% remaining trial 2,"[2]; 10 microgram/ml, time 90 min",13%
same,conc Ng/ml a,"[2]; 10 microgram/ml, time 90 min",7588.3 ng/mL
same,conc Ng/ml b,"[2]; 10 microgram/ml, time 90 min",10490.8 ng/mL
same,% average,"[2]; 10 microgram/ml, time 120 min",3%
same,% remaining trial 1,"[2]; 10 microgram/ml, time 120 min",3%
same,% remaining trial 2,"[2]; 10 microgram/ml, time 120 min",3%
same,conc Ng/ml a,"[2]; 10 microgram/ml, time 120 min",2810.6 ng/mL
same,conc Ng/ml b,"[2]; 10 microgram/ml, time 120 min",2661.8 ng/mL
